# According to paper PMC10566475, “A cell-active cyclic peptide targeting the Nrf2/Keap1 protein–protein interaction” (Chemical Science, 2023):
# Sequences of proteins named here, by UniProt entry; tags and fusion partners are left off. Residues count along the entry.
# UniProt Q14145, 321-609: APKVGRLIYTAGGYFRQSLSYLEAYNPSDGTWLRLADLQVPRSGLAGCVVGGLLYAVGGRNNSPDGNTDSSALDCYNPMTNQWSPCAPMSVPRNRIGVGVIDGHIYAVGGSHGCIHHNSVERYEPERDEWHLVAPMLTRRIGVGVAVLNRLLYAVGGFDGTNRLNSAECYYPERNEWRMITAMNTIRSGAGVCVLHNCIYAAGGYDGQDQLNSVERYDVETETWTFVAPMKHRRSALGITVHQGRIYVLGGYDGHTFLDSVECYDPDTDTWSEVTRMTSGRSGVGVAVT
# UniProt Q14145, whole entry: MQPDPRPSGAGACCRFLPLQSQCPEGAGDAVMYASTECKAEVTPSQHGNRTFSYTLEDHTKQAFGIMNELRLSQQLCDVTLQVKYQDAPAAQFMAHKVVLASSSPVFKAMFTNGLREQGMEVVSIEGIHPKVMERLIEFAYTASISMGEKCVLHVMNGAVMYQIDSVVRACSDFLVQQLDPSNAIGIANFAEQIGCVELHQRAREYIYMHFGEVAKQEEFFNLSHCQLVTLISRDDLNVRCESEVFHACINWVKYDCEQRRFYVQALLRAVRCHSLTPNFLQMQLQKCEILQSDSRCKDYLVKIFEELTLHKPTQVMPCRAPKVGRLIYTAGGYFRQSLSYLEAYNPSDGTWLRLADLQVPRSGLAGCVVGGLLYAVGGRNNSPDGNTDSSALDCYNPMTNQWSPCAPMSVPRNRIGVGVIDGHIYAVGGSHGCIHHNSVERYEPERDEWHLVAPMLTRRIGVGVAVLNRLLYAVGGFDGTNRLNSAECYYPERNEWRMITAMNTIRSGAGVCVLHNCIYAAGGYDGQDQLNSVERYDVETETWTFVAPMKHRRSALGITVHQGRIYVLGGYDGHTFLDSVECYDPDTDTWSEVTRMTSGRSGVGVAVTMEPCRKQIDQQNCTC
# *1 amine or outer side, *2 acyl side, *3 side chain or, on linkers, in order; H or OH if unused. Where a SMILES comes first, the peptide text is derived from it. Bridges are numbered along the chain shown (N, C = ends). X4 = CCOC(=O)CN(C)c1nc(CC[*:1])cc(CC[*:2])n1
# Experiments:
# [1] = target: T1, human Keap1 Kelch domain (A321-T609) (Homo sapiens, UniProt Q14145); assay: Surface plasmon resonance (SPR) direct binding assay, immobilised Keap1 Kelch domain; settings: Table 2; for Kd: geometric mean ± sd of at least two independent repeats
# T1 construct: human Keap1 Kelch domain (A321-T609) fused with N-terminal 6x His-tag; 6xHis (N); made in house
# Source text: (§1) We based the design of our Nrf2-like cyclic peptides around the amino acid sequence of the ETGE motif (namely 12-mer ^73QLQLDEETGEF^84L) and SAR studies reported in the literature.[9,10,12,14] The […] motif is known to adopt a beta-turn conformation upon binding to Keap1. Residues Q73-Q75 and L85 stabilise the bound conformation, L76-D77 and E79-G81 bind deep into the pocket with E79 and E82 forming electrostatic interactions with Keap1 and D77 and T80 stabilising the beta-turn via H-bonds with E78 not contributing to the binding. In particular, our peptides aim to retain the beta-turn conformation and featured the E78P mutation which has been reported to improve the binding affinity.[9] […] The ability of the cyclic peptides to bind to the Kelch domain of Keap1 was evaluated using surface plasma resonance (SPR), where the Kelch domain is immobilised onto a SPR sensor chip. Additionally, we assessed the ability of the peptides to inhibit the PPI between Nrf2 and the Kelch domain of Keap1 using a time-resolved FRET (TR-FRET) assay. Here, the IC50 for inhibition of the interaction between the human Keap1 Kelch domain and an Nrf2-ETGE peptide is measured.
# (§2) Surface Plasmon Resonance (SPR)
# (§3) Peptide affinities to the Kelch domain of Keap1 is determined in a direct binding assay using 8K surface plasmon resonance (SPR) biosensor (Cytiva) at 20°C. Immobilization of Keap1 Kelch domain on a CM5 sensor chip (Cytiva) is performed using standard amine coupling procedure. The surface is washed with 10mM NaOH, 1M NaCl before activated with EDC/NHS (Cytiva), followed by immobilization of human Keap1 Kelch domain (A321-T609) fused with N-terminal 6x His-tag7 (in 10 mM MES, pH=6.4).
# (§4) Finally, the surface is deactivated by Ethanolamine. Immobilization levels are typically 5000-6000 RU.
# (§5) The reference spot is treated as described, omitting the injection of Keap1. Compound concentration series are injected over the immobilized protein in increasing concentrations using single cycle kinetics (SCK) in running buffer (10 mM HEPES, 150 mM NaCl, 0.05% Tween20, 1 mM TCEP, pH 7.4). A 1:1 Langmuir interaction model is fitted to the experimental traces, enabling determination of kon, koff and […]
# (§6) In the time-resolved Förster resonance energy transfer (TR-FRET) assay8 the IC50 of inhibitors which are able to inhibit the interaction between the Keap1-Kelch domain and a Nrf2 derived ETGE peptide are determined. The TR-FRET is measured between a Tb-labelled mAb (Anti—6-His, Tb cryptate Gold, CisBio 61H12TLB) that binds to Keap 1 Kelch domain and d2-labelled SA-biotin-peptide.
# (§7) The assay was performed in 384-well white low-volume, medium binding plates (Greiner Bio One, Austria) in 20 mM HEPES pH 7.5, 150 mM NaCl, 2 mM GSH (Sigma-Aldrich, USA),1mM EDTA (Sigma-Aldrich, USA), and 0.01% Pluronic F127 (MilliporeSigma, USA), with a final reaction volume of 10 µL.
# (§8) To determine the ability of synthesized peptide to inhibit PPI between the Keap1 Kelch domain and Nrf2, 1nM purified human Keap1 Kelch domain (A321-T609) fused with N-terminal 6x His-tag, 5 nM biotinylated Nrf2 peptide ([…], Genescript, USA), d2-labeled streptavidin (Revvity, USA), and […] anti-His monoclonal antibody tagged with terbium cryptate (Revvity, USA), were incubated in the presence of varying concentrations of investigated peptides for 3 h at room […]
# (§9) 7 Li X, Zhang D, Hannink M, Beamer LJ. Crystallization and initial crystallographic analysis of the Kelch domain from human Keap1. Acta
# (§10) 8 S. Lee, D. Ali Abed, L. J. Beamer, L. Hu, Development of a Homogeneous Time-Resolved Fluorescence Resonance Energy Transfer (TR-
# FRET) Assay for the Inhibition of Keap1–Nrf2 Protein–Protein Interaction, SLAS Discovery, 26, 1, 2021, Pages 100-112, ISSN 2472-
# [2] = target: T2, interaction between the human Keap1 Kelch domain and an Nrf2-ETGE peptide (Homo sapiens, UniProt Q14145); assay: Keap1-Nrf2 TR-FRET (HTRF) assay; type: binding; settings: Table 2; IC50, minimum of three repeats; read-out: TR-FRET
# T2 construct: 1nM purified human Keap1 Kelch domain (A321-T609) fused with N-terminal 6x His-tag; made in house
# Source text: as §1, §2, §3, §4, §5, §6, §7, §8, §9, §10
# FRET) Assay for the Inhibition of Keap1–Nrf2 Protein–Protein Interaction, SLAS Discovery, 26, 1, 2021, Pages 100-112, ISSN 2472- […]
# Following the incubation, the PHERAstar FSX […] microplate reader was used to measure the acceptor and donor emissions at 665 nm and 620 nm, respectively. The acceptor/donor ratio was used to calculate relative energy transfer. […]
# [3] = target: NQO1 gene expression in BEAS-2B cells (Homo sapiens); assay: BEAS-2B NQO1 assay (qPCR of NQO1 mRNA); type: cell-based; settings: EC50 of NQO1 mRNA upregulation, 24 h, medium without FBS, read-out: BEAS2b
# Source text: The effect of peptides on Nrf2-dependent gene expression was investigated in BEAS-2B cells, where we determined the upregulation of the mRNA of NAD(P)H quinone dehydrogenase (NQO1) by qPCR. The expression of NQO1 is Nrf2-dependent and it is one of the two major quinone reductases, which play a crucial role in protecting cells from oxidative stress.[40] ^§§ In the context of this study we chose BEAS-2B cells as a representative model for epithelial cells. The presence of serum has been reported to affect BEAS-2B cell phenotype. Specifically, exposure of BEAS-2B to FBS has been associated with squamous differentiation, alteration in cytokine secretion and response to toxicants.[42–44] […] The lack of activity of the peptides is unsurprising considering the overall negative net charge, which will obstruct their cellular uptake. In order to improve the cellular uptake, we took of advantage of the 2C-PS moiety, which not only allows the easy synthesis of a variety of macrocycles of different ring sizes, but also permits the facile introduction of a diverse set of moieties, which could enhance cell permeability. We pursued a diverse set of strategies to make the Keap1 peptide more cell permeable, namely: masking of the acidic amino acids with methyl esters, introduction of polyarginine peptides, GWWG-polyarginine peptides or a long-chain fatty acid tag onto the staple, as well as peptide shortening and a combination of these. The rationale behind these strategies is explained herein, and details of their synthesis can be found in the ESI. ^†
# Cellular Biology Experimental
# (Thermo Fisher Scientific, USA).
# calculated using QunatStudio 7 software.
Structure (SMILES),koff [1],kon [1],IC50 [2],EC50 [3],Kd [1]
CCOC(=O)CN(C)c1nc2cc(n1)CCSC[C@@H](C(=O)N[C@@H](CC(C)C)C(N)=O)NC(=O)[C@H](CCC(=O)O)NC(=O)CNC(=O)[C@H]([C@@H](C)O)NC(=O)[C@H](CCC(=O)OC)NC(=O)[C@@H]1CCCN1C(=O)[C@H](CC(=O)OC)NC(=O)[C@H](CC(C)C)NC(=O)[C@H](CCC(N)=O)NC(=O)[C@H](CC(C)C)NC(=O)[C@@H](NC(C)=O)CSCC2 [Peptide P5-F] (Ac-CLQLD(OMe)PE(OMe)TGECL-NH2; linker 1-11 via X4),0.01 s⁻¹,3600 M⁻¹ s⁻¹,,,
CCOC(=O)CN(C)c1nc2cc(n1)CCSC[C@@H](C(=O)N[C@@H](CC(C)C)C(N)=O)NC(=O)[C@H](CCC(=O)OC)NC(=O)CNC(=O)[C@H]([C@@H](C)O)NC(=O)[C@H](CCC(=O)OC)NC(=O)[C@@H]1CCCN1C(=O)[C@H](CC(=O)O)NC(=O)[C@H](CC(C)C)NC(=O)[C@H](CCC(N)=O)NC(=O)[C@H](CC(C)C)NC(=O)[C@@H](NC(C)=O)CSCC2 [Peptide P6-F] (Ac-CLQLDPE(OMe)TGE(OMe)CL-NH2; linker 1-11 via X4; N-terminus assumed),4.6 s⁻¹,3.8e+06 M⁻¹ s⁻¹,,,
CCOC(=O)CN(C)c1nc2cc(n1)CCSC[C@@H](C(=O)N[C@@H](CC(C)C)C(N)=O)NC(=O)[C@H](CCC(=O)OC)NC(=O)CNC(=O)[C@H]([C@@H](C)O)NC(=O)[C@H](CCC(=O)OC)NC(=O)[C@@H]1CCCN1C(=O)[C@H](CC(=O)OC)NC(=O)[C@H](CC(C)C)NC(=O)[C@H](CCC(N)=O)NC(=O)[C@H](CC(C)C)NC(=O)[C@@H](NC(C)=O)CSCC2 [Peptide P7-F] (Ac-CLQLD(OMe)PE(OMe)TGE(OMe)CL-NH2; linker 1-11 via X4),0.0066 s⁻¹,2100 M⁻¹ s⁻¹,693 ± 1.3 nM,> 10 µM,2950 ± 1.8 nM
CCOC(=O)CN(C)c1nc2cc(n1)CCSC[C@@H](C(=O)N[C@@H](CC(C)C)C(N)=O)NC(=O)[C@H](CCC(=O)O)NC(=O)CNC(=O)[C@H]([C@@H](C)O)NC(=O)[C@H](CCC(=O)O)NC(=O)[C@@H]1CCCN1C(=O)[C@H](CC(=O)O)NC(=O)[C@@H](NC(C)=O)CSCC2 [Peptide P8-F],0.016 s⁻¹,150000 M⁻¹ s⁻¹,6.8 ± 1.2 nM,> 10 µM,100 ± 1 nM
CC(=O)N[C@H]1CSCCc2cc(nc(NCCOCCOCc3cn(CCCCC(=O)NCC(=O)N[C@@H](Cc4c[nH]c5ccccc45)C(=O)N[C@@H](Cc4c[nH]c5ccccc45)C(=O)NCC(=O)N[C@H](CCCNC(=N)N)C(=O)N[C@H](CCCNC(=N)N)C(=O)N[C@H](CCCNC(=N)N)C(N)=O)nn3)n2)CCSC[C@@H](C(=O)N[C@@H](CC(C)C)C(N)=O)NC(=O)[C@H](CCC(=O)O)NC(=O)CNC(=O)[C@H]([C@@H](C)O)NC(=O)[C@H](CCC(=O)O)NC(=O)[C@@H]2CCCN2C(=O)[C@H](CC(=O)O)NC1=O [Peptide P8-G],0.0046 s⁻¹,1.2e+06 M⁻¹ s⁻¹,1.9 ± 1.6 nM,> 10 µM,4.6 ± 1.4 nM
